This is an account of results in patent US7109214B2, “Substituted cyclopentene compounds” (Grunenthal GmbH, priority 2004, dated 2006).

In this experiment the target is T1, CGRP1 receptors (Cavia porcellus, UniProt H0UV86+Q8R4C6).
T1 sequence (H0UV86 23-464): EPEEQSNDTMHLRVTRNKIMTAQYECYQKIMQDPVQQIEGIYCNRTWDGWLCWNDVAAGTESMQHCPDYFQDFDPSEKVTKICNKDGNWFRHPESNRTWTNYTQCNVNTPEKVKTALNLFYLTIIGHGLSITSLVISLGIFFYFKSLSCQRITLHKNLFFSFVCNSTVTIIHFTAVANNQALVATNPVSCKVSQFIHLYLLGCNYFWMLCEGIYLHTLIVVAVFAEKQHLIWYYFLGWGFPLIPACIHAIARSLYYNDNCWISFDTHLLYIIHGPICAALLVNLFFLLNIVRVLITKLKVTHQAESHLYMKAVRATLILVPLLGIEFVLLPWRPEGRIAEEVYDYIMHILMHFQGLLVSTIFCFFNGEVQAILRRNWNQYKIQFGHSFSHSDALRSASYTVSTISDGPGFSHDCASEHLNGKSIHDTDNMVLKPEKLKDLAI
T1 sequence (Q8R4C6 27-148): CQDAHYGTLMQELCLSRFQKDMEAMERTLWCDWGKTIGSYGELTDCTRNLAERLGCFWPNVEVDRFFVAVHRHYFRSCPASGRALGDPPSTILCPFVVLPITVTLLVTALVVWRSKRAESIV
As to the kind of experiment: CGRP receptor affinity on isolated, spontaneously beating guinea pig atrium. The conditions noted are these: in the presence of vehicle solution. Here is the method:
J. Physiol. Pharmacol. 75: 671–6,1997. The corresponding literature description is hereby introduced as a reference and is deemed to be part of the disclosure.
The exposure time for each concentration level is 2 minutes.
The validation and investigation of the substituted cyclopentene compounds according to the invention for their antagonistic action proceeded in accordance with the above-described method.

For “h-α-CGRP: human α-CGRP, agonist that increases the frequency of beating of guinea pig atria [reference compound]”, the “Increase in frequency of beating of the isolated atria” value is given as “approx. 35%”.
